{
  "source": "patent US20240166755A1",
  "about": "“CHIMERIC ANTIGEN RECEPTORS TARGETING CANCER” (University of Southern California, priority 2016, published 2024)",
  "key": {"MPL": {"target": "T1, MPL (Homo sapiens, UniProt P40238)", "T1 construct": "endogenous in cells; host or cells: Jurkat, K562, RAJI, RS411 and HEL.92.1.7 cells (Gluc-expressing), carrying empty vector or human c-MPL cDNA", "T1 sequence (P40238 26-635)": "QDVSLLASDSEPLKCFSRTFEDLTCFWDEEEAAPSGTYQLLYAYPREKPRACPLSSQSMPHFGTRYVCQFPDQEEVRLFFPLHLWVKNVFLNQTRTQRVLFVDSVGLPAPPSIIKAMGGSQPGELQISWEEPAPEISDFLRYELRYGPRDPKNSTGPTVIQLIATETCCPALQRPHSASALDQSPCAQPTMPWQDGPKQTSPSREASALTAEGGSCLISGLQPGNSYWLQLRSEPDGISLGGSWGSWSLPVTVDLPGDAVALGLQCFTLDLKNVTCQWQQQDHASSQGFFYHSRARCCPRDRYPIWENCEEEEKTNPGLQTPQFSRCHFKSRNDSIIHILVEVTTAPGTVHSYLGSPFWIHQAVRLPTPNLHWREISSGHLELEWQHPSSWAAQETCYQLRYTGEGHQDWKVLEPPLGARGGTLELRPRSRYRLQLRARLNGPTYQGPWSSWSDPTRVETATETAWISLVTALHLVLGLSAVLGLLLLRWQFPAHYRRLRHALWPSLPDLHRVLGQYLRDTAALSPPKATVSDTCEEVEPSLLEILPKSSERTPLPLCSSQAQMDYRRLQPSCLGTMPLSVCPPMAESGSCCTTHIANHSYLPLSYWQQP", "test": "Assay to detect expression of antigens on target cells: binding of 161-GGSG-NLuc-AcV5 supernatant (NLuc activity)", "description": "Both CD19 and MPL (also known as Thrombopoietin receptor or TPO-R) are expressed on hematopoietic cells but show differential expression in cells of different lineages. FMC63 is a well characterized mouse monoclonal antibody that specifically recognizes human CD19. Similarly, 161 (also designated as 1.6.1) is a monoclonal antibody that recognizes human MPL and is described in U.S. patent application US 2012/0269814 A1. We generated a FMC63 single chain Fv (scFv) fragment based on the known sequence of FMC63 vL and vH fragments. The cDNA encoding FMC63 scFv fragment consisted from 5′ to 3′ ends a nucleotide sequences encoding a signal peptide derived from human CD8 molecule, FMC63 vL fragment, a (Gly4Ser)x3 linker and FMC63-vH fragment. The cDNA encoding the FMC63 scFv fragment was then fused in-frame at its 3′ end to cDNA encoding AcV5-tagged NLuc through a Gly-Gly-Ser-Gly (SEQ ID NO:3571) linker to generate FMC63-GGSG-NLuc. The resulting fragment was then cloned down-stream of the human EF1α promoter into the lentiviral vector pLenti-EF1α (SEQ ID NO: 905) to make the construct Plenti-EF1a-FMC63(vL-vH)-GGSG-NLuc-AcV5-U09. The DNA and PRT sequences of the insert fragment are provided in SEQ ID NO: 923 and SEQ ID NO: 2668, respectively. A construct encoding 161-GGSG-NLuc was similarly generated using the vL and vH fragment of 1.6.1 monoclonal antibody against MPL. The DNA and PRT sequences of the insert fragment are provided in SEQ ID NO: 924 and SEQ ID NO: 2669, respectively. The pLenti-EF1a-FMC63(vL-vH)-GGSG-NLuc-AcV5 and pLenti-EF1a-161(vL-vH)-GGSG-NLuc-AcV5 plasmids were transfected into 293FT cells by calcium phosphate co-precipitation method. Approximately 20h post-transfection, the cell culture media was replaced with XVIVO medium. The conditioned media containing the secreted FMC63(vL-vH)-GGSG-NLuc-AcV5 (also referred to as FMC63-GGSG-NLuc-AcV5) and 161(vL-vH)-GGSG-NLuc-AcV5 (also referred to as 161-GGSG-NLuc-AcV5) proteins was collected 48-72h later.\nThe supernatant containing FMC63-GGSG-NLuc-AcV5 and 161-GGSG-NLuc-AcV5 proteins were used to detect the expression of CD19 and MPL on the surface of Jurkat, K562, RAJI, RS-4-11 (RS411) and HEL.92.1.7 (HEL) cells that had been engineered to express a c-MPL cDNA by transducing these cells with a lentiviral vector expressing human c-MPL cDNA or an empty vector. The cells also expressed a humanized Gluc cDNA lacking its signal peptide. The vector- and MPL-expressing Jurkat-Gluc, K562-Gluc, HEL.92.1.7-Gluc, RAJI-Gluc and RS411-Gluc cells were incubated with the FMC63-GGSG-NLuc-AcV5 and 161-GGSG-NLuc-AcV5 supernatants at 4° C. for 1h followed by extensive washings with cold PBS supplemented with 0.1% BSA. […] NLuc assay buffer containing native coelenterazine (CTZ) as NLuc substrate (30 μl/well of native coelenterazine diluted in PBS) was added to each well by an automatic dispenser in a well mode using a BioTek synergy H4 plate reader and light emission as a measure of NLuc activity was measured."}, "[1]": {"target": "T2, extracellular domain (ECD) of human MPL (Homo sapiens, UniProt P40238)", "T2 construct": "made in house; host or cells: 293FT cells, conditioned medium used unpurified", "test": "NLuc assay to detect CAR: binding of MPL-ECD-GGSG-NLuc-AcV5 supernatant to CAR-expressing cells", "details": "T cells expressing the CAR", "description": "A frequent problem in the field of chimeric antigen receptors is lack of a sensitive and specific assay that can detect cells that express chimeric antigen receptors. To detect the expression of CAR targeting CD19 and MPL, we fused the extracellular domains (ECD) of human CD19 and human MPL, including their signal peptides, in frame with nucleotide sequence encoding a Gly-Gly-Ser-Gly linker, NLuc (without a secretory signal) and an AcV5 epitope tag. In the case of CD19 construct, a FLAG tag was inserted between the signal peptide and the beginning of the extracellular domain. The whole cassette was cloned downstream of the human EF1α promoter into the lentiviral vector pLenti-EF1 to make constructs pLenti-EF1-FLAG-CD19-ECD-GGSG-NLuc-AcV5 and pLenti-EF1-MPL-ECD-GGSG-NLuc-AcV5, respectively. The nucleic acid sequences of the insert fragments are provided in SEQ ID NO: 926 and SEQ ID NO: 925, respectively. The protein sequences of the insert fragments are provided in SEQ ID NO: 2671 and SEQ ID NO: 2670, respectively. The constructs were transfected into 293FT cells by calcium phosphate co-precipitation method. Approximately 20 h post-transfection, the cell culture media was replaced with fresh medium. The conditioned media containing the secreted FLAG-CD19-ECD-GGSG-NLuc-AcV5 (also referred to as CD19-GGSG-NLuc-AcV5) and MPL-ECD-GGSG-NLuc-AcV5 (also referred to as MPL-GGSG-NLuc-AcV5) proteins was collected 48-72 h later.\nNext day morning, approximately 18 hours post-transfection, cells were collected by pipetting up and down in 1.5 ml tubes. The tubes were spun down at 1500 RPM for 5 minutes. Then the cells were washed once with wash buffer (1% FBS in PBS), followed by incubation with 1001 of indicated secretory forms of GGS NLuc supernatants. The cells were incubated at 4° C. for 1 hour.\nAfter the incubation, cells were washed 5 times with wash buffer (1 ml each wash). Finally the pellet was resuspended in 200 μl wash buffer. Resuspended cells were placed in a 384 well plate in triplicate (25 μl each). Luciferase activity was measured using a BioTek synergy H4 plate reader after addition of NLuc assay buffer (Promega) containing native coelenterazine (25 μl each well) directly to each well (one at a time).\nT cells expressing the different MPL CAR constructs were incubated with MPL-GGSG-NLuc-AcV5 and CD19-GGSG-NLuc-AcV5 supernatants and after extensive washes assayed for NLuc activity essentially as described in the preceding example."}, "[2]": {"system": "RAJI xenograft model of lymphoma", "test": "In vivo efficacy of CAR-T cells, RAJI xenograft model of lymphoma in NSG mice (Table 27)", "design": "species or system mouse", "details": "IL-7 200 ng/mouse i.p. three times from 1 day after CAR-T cells, versus saline", "protocol": "NSG mice (Jackson Lab) were sub-lethally irradiated at a dose of 175 cGy. 24 hours post irradiation (day2), mice were injected with 2.5×10^4 RAJI cells via tail-vein. […] Control mice (n=5) were injected with 1 million T cells expressing the CD8SP-KSHV-4C3-(vL-vH)-Myc-BBz-T2A-PAC(042315-N01)[SEQ ID NO:1643] CAR or given no T cells. […] The median survival of mice given RAJI cells alone and CD8SP-KSHV-4C3-(vL-vH)-Myc-BBz-T2A-PAC(042315-N01)[SEQ ID NO:1643]CAR-T cells were 17 days and 21 days respectively. In contrast, the median survival of mice which received CD8SP-2-CD19MM-(vL-vH)-Myc-BBz-T2A-PAC(062915-D03)[SEQ ID NO:1471] CAR-T cells with and without puromycin selection were 26 and 30 days, respectively. […] CAR-T cells with and without puromycin selection were 30 and 31 days, respectively.\nNSG mice (Jackson Lab) were sub-lethally irradiated at a dose of 175 cGy. 24 hours post irradiation (day2), mice were injected with 2.5×10^4 RAJI cells via tail-vein. On day3, the mice (n=3 for each group) were treated with 1 million T cells that had been infected with the CAR encoding lentiviruses.\nHuman peripheral blood T cells will be isolated using CD3 magnetic beads and infected with lentiviruses expressing the CAR constructs (SEQ ID NO: 11 1614-1B05) targeting CD 19. […] NSG mice (Jackson Lab) will be sub-lethally irradiated at a dose of 175 cGy. 24 hours post irradiation (day2), mice will be injected with 2.5×10^4 RAJI cells via tail-vein. On day 3, the mice (n=5 for each group) will be treated with 5 million T cells that had been infected with the indicated CAR encoding lentiviruses and expanded in the absence or presence of PF-04691502. Control mice (n=5) will be injected with 5 million uninfected T cells. Mice are given human IL2 (400 IU i.p.) on alternate days till the death of all mice in control group."}},
  "data": [
    {"molecule": "161-GGSG-NLuc-AcV5: scFv of 1.6.1 monoclonal antibody against MPL fused to AcV5-tagged NLuc (protein, listed as DNA, scFv of 1.6.1 monoclonal antibody against MPL fused to AcV5-tagged NLuc) MALPVTALLLPLALLLHAARPDDIQMTQSSSSFSVSLGDRVTITCMASEDIYIRLAWYQQKPGNAPRLLISAATSLETGVPSRFSGSGSGKDYTLSITSLQTEDVGTYYCQQYWSSPWTFGGGTKLEINGGGGSGGGGSGGGGSDVQLQESGPGLVKPSQSLSLTCTVTGYSITSDYTWNWIRQFPGNKLEWMGYITYSGSTSYNPSLKSRNSITRDTSKNQFFLQLNSVTTEDTATYYCARLGRRYTMDYWGQGTSVTVSSTRGGSGVFTLEDFVGDWRQTAGYNLDQVLEQGGVSSLFQNLGVSVTPIQRIVLSGENGLKIDIHVIIPYEGLSGDQMGQIEKIFKVVYPVDDHHFKVILHYGTLVIDGVTPNMIDYFGRPYEGIAVFDGKKITVTGTLWNGNKIIDERLINPDGSLLFRVTINGVTGWRLCERILASWKDASGWS", "values": [
      {"measurement": "binding (NLuc activity)", "setting": "MPL; HEL.92.1.7-Gluc-MPL cells, versus vector cells", "result": "modest increase"},
      {"measurement": "binding (NLuc activity)", "setting": "MPL; HEL.92.1.7-Gluc-vector cells", "result": "strong binding"},
      {"measurement": "binding (NLuc activity)", "setting": "MPL; Jurkat, RAJI and RS411 cells upon ectopic expression of MPL", "result": "modestly increased"},
      {"measurement": "binding (NLuc activity)", "setting": "MPL; K562-MPL cells, versus K562-vector", "result": "significantly increased"},
      {"measurement": "binding (NLuc activity)", "setting": "MPL; K562-vector cells", "result": "weak but stronger binding"},
      {"measurement": "binding (NLuc activity)", "setting": "MPL; vector-expressing Jurkat, RAJI and RS411 cells", "result": "very weak binding"}
    ]},
    {"molecule": "CD8SP-4C3-(vL-vH)-Myc-CD28z-T2A-Pac(031615-WO5): control CAR (4C3 scFv, CD28z) (protein, listed as DNA) MALPVTALLLPLALLLHAARPDIVMTQSPSSLTMSVGQKVTMSCKSSHSLLNSRNQKNYLAWFQQKPGQSPKLLVYFASTRESGVPDRFIGSGSGTDFTLTISNVQAEDLADYFCQQHYTTLPTFGGGTKLEIKGGGGSGGGGSGGGGSQIQLVQSGPDLKKPGETVKISCKASGYTFTNTGMNWVKQAPGKGLKWMGWINTYTGEPTYADDFKGRFTFSLETSASTAYLQINNLKNEDTATYFCTRWGYGSSLYYAMDYWGQGTSVTVSSTREQKLISEEDLKIEVMYPPPYLDNEKSNGTIIHVKGKHLCPSPLFPGPSKPFWVLVVVGGVLACYSLLVTVAFIIFWVRSKRSRLLHSDYMNMTPRRPGPTRKHYQPYAPPRDFAAYRSRVKFSRSADAPAYQQGQNQLYNELNLGRREEYDVLDKRRGRDPEMGGKPRRKNPQEGLYNELQKDKMAEAYSEIGMKGERRRGKGHDGLYQGLSTATKDTYDALHMQALPPRSSGSGEGRGSLLTCGDVEENPGPHMTEYKPTVRLATRDDVPRAVRTLAAAFADYPATRHTVDPDRHIERVTELQELFLTRVGLDIGKVWVADDGAAVAVWTTPESVEAGAVFAEIGPRMAELSGSRLAAQQQMEGLLAPHRPKEPAWFLATVGVSPDHQGKGLGSAVVLPGVEAAERAGVPAFLETSAPRNLPFYERLGFTVTADVEVPEGPRTWCMTRKPGA", "values": [
      {"measurement": "binding to MPL-GGSG-NLuc AcV5 (NLuc assay)", "setting": "[1]", "result": "no significant binding"}
    ]},
    {"molecule": "IL-7: exogenous recombinant human IL-7 (protein, UniProt P13232 26-177, looked up) Interleukin-7: DCDIEGKDGKQYESVLMVSIDQLLDSMKEIGSNCLNNEFNFFKRHICDANKEGMFLFRAARKLRQFLKMNSTGDFDLHLLKVSEGTTILLNCTGQVKGRKPAALGEAQPTKSLEENKSLKEQKKLNDLCFLKRLLQEIKTCWNKILMGTKEH", "values": [
      {"measurement": "tumor rejection and survival", "setting": "[2]", "result": "expected to reject their tumor and survive longer"}
    ]}
  ]
}
